## Measured affinities in a library of Ab-14 heavy chain variants

Binding partner: SARS-CoV-2 spike HR2 peptide, sequence PDVDLGDISGINAS.

Ab-14 is the parent antibody, in scFv form: VH, then a (GGGGS)3 linker, then VL. The light chain is unchanged in all variants.
VH: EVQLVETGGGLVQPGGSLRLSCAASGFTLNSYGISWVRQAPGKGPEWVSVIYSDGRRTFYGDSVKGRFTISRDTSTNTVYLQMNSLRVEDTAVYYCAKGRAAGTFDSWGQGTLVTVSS
VL: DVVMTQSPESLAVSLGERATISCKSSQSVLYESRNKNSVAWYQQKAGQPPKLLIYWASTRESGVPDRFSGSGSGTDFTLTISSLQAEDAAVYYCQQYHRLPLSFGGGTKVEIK

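The parent was found by panning a naive human phage display library on the peptide. Designed CDR sequences, proposed from the first random library and measured here. Group labels follow the data file (Ctrl: baseline library sampled from a position-specific scoring matrix, with some repeated check sequences; Rand: our label for a block that the file lists under HC and that is probably the random mutants of the ten best first-round binders; GP: Gaussian process model; GPLM: also part of the Gaussian process libraries; HC: hill climbing; Gen: genetic algorithm; Gibbs: Gibbs sampling; a sequence that several methods proposed may carry one label only). The assay is AlphaSeq: two haploid yeast populations carry antibody and antigen on their surface. The frequency of each diploid, read from paired DNA barcodes, reflects how well the two displayed proteins bind. Scores were corrected for input abundance and mapped to Kd with protein pairs of known affinity run in the same pool. The assay was run in six technical replicates.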

The parent's heavy chain CDRs are GFTLNSYGIS, VIYSDGRRTFYGDSVK, GRAAGTFDS; each variant's own CDRs replace them letter for letter. This list holds designs with at most six substitutions. Kd is apparent (estimated from mating counts) and averaged on the log scale over replicates with a signal. Smaller is tighter. "nd" marks a missing value. The strain was present, yet no cells mated with the target were sequenced in any replicate, which points to weak or no binding. The list is sorted by this average, lowest first, undetected variants last. Of ten entries with the parent sequence, four were seen in most replicates (averages 2.2 nM to 240 nM), three in one and three in none, so single entries are noisy. The authors averaged sequences with at least three values out of six and counted those with two or fewer as poor binders. Nonspecific signal, from three strains lacking the peptide, appeared in 1% of pairings of all heavy chain designs, centred on 120 nM (5% of these signals below 7.0 nM); values are not corrected for it. For each scFv, signals with the empty controls are counted beside the result. The range of this assay differs from that of the first round, and the authors advise against merging the two.

The variant GFTLNEYGIS | VIYSDGRRTFYGDSVK | GDPAGCMDS [Ctrl] gave 130 pM (1 of 6 replicates; controls 0 of 18).
The variant GFSLNEYGIS | VIYSDGRRTFYADSVK | GRWAGTFDS [GP_Gibbs] gave 450 pM (6 of 6 replicates; controls 0 of 18).
The variant GFDLNSYGIS | VIYSDGRRTFYIDSVK | GNAAGTFDA [GP_Gen] gave 620 pM (6 of 6 replicates; controls 0 of 18).
The variant GFSLNEYGIS | VIYSDGRRTFYGDNVK | GRTAGTFDS [GPLM_Gibbs] gave 660 pM (6 of 6 replicates; controls 0 of 18).
The variant GFSLNSYGIS | VIYSDGQRTFYGDSVK | GQTAGTFDS [GPLM_Gen] gave 2.1 nM (6 of 6 replicates; controls 1 of 18).
The variant GFTINSYGIS | VIYSDGRRTFYSDSVK | GHAAGTFDS [GPLM_HC] gave 2.3 nM (6 of 6 replicates; controls 0 of 18).
The variant GFTLNEYGIS | VIYSDGRRTFYGDSVK | GRFAGTFDV [GP_HC] gave 2.5 nM (3 of 6 replicates; controls 0 of 18).
The variant GFTLNEYGIS | VIYSDGRRTMYGDSVK | GRTAGTFDS [GPLM_Gen] gave 2.6 nM (6 of 6 replicates; controls 0 of 18).
The variant GFELESYGIS | VIYSDGRRTFYADSVK | GRAAGTFDS [GPLM_Gen] gave 3.0 nM (6 of 6 replicates; controls 1 of 18).
The variant GRTLNSHGIS | VIYSDGRRTFYGDSVK | GRAAGTFDS [Ctrl] gave 3.6 nM (6 of 6 replicates; controls 1 of 18).
The variant GFRLHSYGIS | VIYSDGYRTFYSDSVK | GRAAGQNDS [Ctrl] gave 4.7 nM (1 of 6 replicates; controls 0 of 18).
The variant GFELNSYGIS | VIYSDGRRTFYIDSVK | GRTAGTFDT [GP_Gen] gave 5.6 nM (6 of 6 replicates; controls 0 of 18).
The variant GFTLNSYGIH | VIYSDGRRTFYGDSVK | GDAAGTFDS [Ctrl] gave 6.0 nM (6 of 6 replicates; controls 0 of 18).
The variant GFSLNSYGIS | VIYSDGRRTFYGDSVK | GSACGTFDS [Ctrl] gave 6.3 nM (6 of 6 replicates; controls 0 of 18).
The variant GFTLDSYGIS | VIYSDGRRTFYGDSVK | GRAAGTFDL [GPLM_HC] gave 8.8 nM (6 of 6 replicates; controls 0 of 18).
The variant GFTLNSYGIS | VIYSDGRRTFYIDSVK | GNVAGTFDS [GPLM_Gibbs] gave 10 nM (6 of 6 replicates; controls 0 of 18).
The variant GFCLNSYGIS | VIYSDGERTFYTDSVK | GRAAGTFDS [Ctrl] gave 20 nM (2 of 6 replicates; controls 0 of 18).
The variant GFSLNEYGIS | VIYSDGRRTFYGDSVK | GRKAGTFDS [GPLM_Gen] gave 25 nM (6 of 6 replicates; controls 0 of 18).
The variant GFTLNEYGIS | VIYSDGRRTFYGDSVK | GWAAGTFDK [GPLM_Gen] gave 39 nM (3 of 6 replicates; controls 0 of 18).
The variant GFTLNSYGIS | VIYSDGIRTFYGDSVK | GSAAGTFDS [Ctrl] gave 44 nM (6 of 6 replicates; controls 0 of 18).
The variant GFTLNQYGIS | VIYSDGQRTFYADSVK | GRAAGTFDS [GPLM_HC] gave 62 nM (6 of 6 replicates; controls 0 of 18).
The variant KFTLNSYGIS | VIYSDGRRTFYQDKVK | GDAAGTFDE [Ctrl] gave 91 nM (5 of 6 replicates; controls 0 of 18).
The variant GFTLNRYGIS | VIYSDGRRTFYSQAVK | GRSAGFFDS [Rand] gave 120 nM (1 of 6 replicates; controls 0 of 18).
The variant GFTLNQYGIS | VIYSDGRFTFYSDSVK | GRAAGFFDS [Rand] gave 130 nM (1 of 6 replicates; controls 0 of 18).
The variant GFELNSYGIS | VIYSDGRRTFYGDSVK | GQAAGTFDN [GP_Gibbs] gave 140 nM (3 of 6 replicates; controls 0 of 18).
The variant GFELNEYGIS | VIYSDGRRTFYRDSVK | GRTAGTFDS [GP_Gen] gave 650 nM (1 of 6 replicates; controls 0 of 18).
The variant GFTLNSYGIS | VIYSDGRRTMYGDQVV | GRAAGTFDS [Ctrl] gave 720 nM (5 of 6 replicates; controls 0 of 18).
The variant GFTLNDYGIS | VIYSDGRRTAYDDSVK | GRAAGTFDS [Ctrl] gave 1.1 µM (1 of 6 replicates; controls 0 of 18).
The variant GFTLESYGIG | VIYSDGRRTFYGDSVK | GFAAGTFDS [Ctrl] gave nd (0 of 6 replicates; controls 0 of 18).
The variant GFTLNQYGIS | VIYSDGRRTFLSDSVK | GRAAGFFDS [Rand] gave nd (0 of 6 replicates; controls 0 of 18).
The variant GFTLNSYGIS | VIYSDGRRTFYGDSVK | GRAAGLFDQ [Ctrl] gave nd (0 of 6 replicates; controls 0 of 18).
The variant GFTLNQYGIS | VIYSDGRRDFYSDSVK | GRAAGFFDS [Rand] gave nd (0 of 6 replicates; controls 0 of 18).
The variant EADLNSYGIS | VIYSDGRRTFYGDSVK | GRAAGTFDI [Ctrl] gave nd (0 of 6 replicates; controls 0 of 18).
The variant GFTLNDYGIT | VIYSDGRRTMYGDNVK | GRAGGTFDS [Ctrl] gave nd (0 of 6 replicates; controls 0 of 18).
The variant GFTLNSYGIS | VIYSDGRRTFYGPSVK | GRAAGTFDS [Ctrl] gave nd (0 of 6 replicates; controls 0 of 18).
The variant GFVLNSYGIS | VIYSDGRRTFYIDSVK | GREAGTFDS [GP_Gibbs] gave nd (0 of 6 replicates; controls 0 of 18).
The variant GFTLNSYGIS | VIYSDGRRTIYQDSVV | GRAAGTFDS [Ctrl] gave nd (0 of 6 replicates; controls 0 of 18).
The variant GFTLNSYGIS | VIYSDGRRGFYDDSVK | GQLAGTFDS [Rand] gave nd (0 of 6 replicates; controls 0 of 18).
The variant SFELNSYGIS | VIYSDGRRTFYGDSVK | GQTAGTFDD [GP_Gibbs] gave nd (0 of 6 replicates; controls 0 of 18).
The variant GFDLNSYGIS | VIYSDGRRTFYVDSVK | GRTAGTFDT [GP_Gen] gave nd (0 of 6 replicates; controls 0 of 18).

Picked from the list: the 6 lowest averages where every replicate gave a value.

| CDR-H1 | CDR-H2 | CDR-H3 | group | Kd | detected | control signals |
|---|---|---|---|---|---|---|
| GFSLNEYGIS | VIYSDGRRTFYADSVK | GRWAGTFDS | GP_Gibbs | 450 pM | 6/6 | 0/18 |
| GFDLNSYGIS | VIYSDGRRTFYIDSVK | GNAAGTFDA | GP_Gen | 620 pM | 6/6 | 0/18 |
| GFSLNEYGIS | VIYSDGRRTFYGDNVK | GRTAGTFDS | GPLM_Gibbs | 660 pM | 6/6 | 0/18 |
| GFSLNSYGIS | VIYSDGQRTFYGDSVK | GQTAGTFDS | GPLM_Gen | 2.1 nM | 6/6 | 1/18 |
| GFTINSYGIS | VIYSDGRRTFYSDSVK | GHAAGTFDS | GPLM_HC | 2.3 nM | 6/6 | 0/18 |
| GFTLNEYGIS | VIYSDGRRTMYGDSVK | GRTAGTFDS | GPLM_Gen | 2.6 nM | 6/6 | 0/18 |

The measurements come from Li et al. 2023 (doi:10.1038/s41467-023-39022-2) through the FLAb antibody collection.